Measured values: ChEMBL document CHEMBL4680175, “Sulfonamide-based ring-fused analogues for CAN508 as novel carbonic anhydrase inhibitors endowed with antitumor activity: Design, synthesis, and in vitro biological evaluation” (Eur J Med Chem, 2020)

Test system: COLO 205
Assay: Antitumor activity against human COLO205 cells assessed as cell growth inhibition at 10 uM incubated for 48 hrs by sulforhodamine B assay
Assay type: functional
Details: read-out: GI
Method in brief: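 NCI Drug Evaluation Branch protocol: primary single-dose screen at 10 μM across a 57-line human cancer panel. Drug exposure is 48 h. Cell growth and viability are read by sulforhodamine B assay. Data are given as a mean graph of percent growth of treated cells and reported as percentage growth inhibition (GI%).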

N#Cc1c(-c2ccc(Br)cc2)nc2c(/N=N/c3ccc(S(N)(=O)=O)cc3)c(N)nn2c1N
inhibition of growth at 10 µM: 74%
